Experimental data as given in patent publication US8461128B2, “Anti-microbial agents and uses thereof” (priority 2005, dated 2013).

System: M. tuberculosis H37Rv
Assay type: cell-based, Mycobacterium tuberculosis

NNC(=O)c1ccncc1 [isoniazid, reference compound]
iron-deficient media selectivity: do not exhibit iron-deficient media selectivity
